We go through one substance from patent publication US20250361273A1, “METHODS AND COMPOSITIONS” (priority 2024, published 2025).

The chains behind the UniProt entries cited, without tags or fusion partners.
UniProt P32245, whole entry: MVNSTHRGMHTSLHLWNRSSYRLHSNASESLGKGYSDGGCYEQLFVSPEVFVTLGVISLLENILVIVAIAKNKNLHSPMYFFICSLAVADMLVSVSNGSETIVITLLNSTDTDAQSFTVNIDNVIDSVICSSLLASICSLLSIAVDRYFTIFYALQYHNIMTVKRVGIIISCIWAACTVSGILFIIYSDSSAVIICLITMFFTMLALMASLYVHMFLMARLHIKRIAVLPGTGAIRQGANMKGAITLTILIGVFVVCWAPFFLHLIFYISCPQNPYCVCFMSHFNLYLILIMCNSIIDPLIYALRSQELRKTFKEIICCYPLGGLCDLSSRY

Common to all, as to type: cell-based
In test [1] the target is T1, MC4R (Homo sapiens, UniProt P32245).
T1 construct: host or cells: HEK293 (cAMP Hunter and PathHunter MC4R cell lines)
Briefly: cAMP assay (human receptors), DiscoverX HitHunter, MC4R. The note with it: HEK293. For orientation: Cyclic AMP is a second messenger, typically raised through Gs and lowered through Gi signalling.

Test [2] concerns the target T1, MC4R. Briefly: B-arrestin assay (human receptors), DiscoverX PathHunter, MC4R. The note with it: read-out: MC4R Barr EC50. How it is done:
Compound activity was analyzed using CBIS data analysis suite (ChemInnovation, CA).

For test [3], the target named is T1, MC4R. Briefly: Bias calculation MC4R B-arrestin v MC4R cAMP. The note with it: Table 5.

For a-MSH, the results for the EC50 in test [1] and in test [2] were 33.7 nM and 86 nM, respectively. In test [3], the “Bias: MC4R B-arrestin v MC4R cAMP (Larger numbers indicate bias towards B-arrestin)” value is reported as 0.39.

By EC50 is commonly meant the concentration giving half of the maximal effect.
